Test results reported in article PMC3664191 (Bioorganic & medicinal chemistry letters, 2013).

Protein sequences, listed by entry. Tags and fused reporters are not part of them.
UniProt Q9HAZ1, whole entry, species assumed: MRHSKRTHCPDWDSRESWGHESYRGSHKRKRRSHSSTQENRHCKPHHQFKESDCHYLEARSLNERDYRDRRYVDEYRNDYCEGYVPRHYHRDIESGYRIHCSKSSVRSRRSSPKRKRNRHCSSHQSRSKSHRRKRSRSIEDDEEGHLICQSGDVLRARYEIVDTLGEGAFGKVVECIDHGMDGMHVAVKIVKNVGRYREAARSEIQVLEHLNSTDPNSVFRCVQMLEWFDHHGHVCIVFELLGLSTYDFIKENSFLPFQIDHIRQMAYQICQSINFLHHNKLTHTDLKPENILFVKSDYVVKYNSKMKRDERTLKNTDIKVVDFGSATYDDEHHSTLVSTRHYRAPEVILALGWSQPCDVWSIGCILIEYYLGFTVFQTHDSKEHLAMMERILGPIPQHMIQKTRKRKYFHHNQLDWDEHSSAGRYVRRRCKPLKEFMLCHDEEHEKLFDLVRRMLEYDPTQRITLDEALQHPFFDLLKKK

Target: Clk4 (Homo sapiens, UniProt Q9HAZ1)
Assay: Kinase Glo
Assay type: biochemical
Settings: bioluminescent qHTS assays

Clc1ccc(CNc2nccc(-c3ccc4[nH]ncc4c3)n2)cc1Cl [Compound 22]
selectivity for Clk4 over Dyrk1A: > 10 fold
